Data as given in ChEMBL document CHEMBL1139269, “Stereoselective inhibition of serotonin re-uptake and phosphodiesterase by dual inhibitors as potential agents for depression” (Bioorg Med Chem, 2009).
pIC50: −log10 of the molar value.

By UniProt entry, the sequences of proteins in these tests, tags left out. Where a name states a change or a piece, a line headed by the entry shows the natural chain unless it says otherwise.
UniProt Q08499: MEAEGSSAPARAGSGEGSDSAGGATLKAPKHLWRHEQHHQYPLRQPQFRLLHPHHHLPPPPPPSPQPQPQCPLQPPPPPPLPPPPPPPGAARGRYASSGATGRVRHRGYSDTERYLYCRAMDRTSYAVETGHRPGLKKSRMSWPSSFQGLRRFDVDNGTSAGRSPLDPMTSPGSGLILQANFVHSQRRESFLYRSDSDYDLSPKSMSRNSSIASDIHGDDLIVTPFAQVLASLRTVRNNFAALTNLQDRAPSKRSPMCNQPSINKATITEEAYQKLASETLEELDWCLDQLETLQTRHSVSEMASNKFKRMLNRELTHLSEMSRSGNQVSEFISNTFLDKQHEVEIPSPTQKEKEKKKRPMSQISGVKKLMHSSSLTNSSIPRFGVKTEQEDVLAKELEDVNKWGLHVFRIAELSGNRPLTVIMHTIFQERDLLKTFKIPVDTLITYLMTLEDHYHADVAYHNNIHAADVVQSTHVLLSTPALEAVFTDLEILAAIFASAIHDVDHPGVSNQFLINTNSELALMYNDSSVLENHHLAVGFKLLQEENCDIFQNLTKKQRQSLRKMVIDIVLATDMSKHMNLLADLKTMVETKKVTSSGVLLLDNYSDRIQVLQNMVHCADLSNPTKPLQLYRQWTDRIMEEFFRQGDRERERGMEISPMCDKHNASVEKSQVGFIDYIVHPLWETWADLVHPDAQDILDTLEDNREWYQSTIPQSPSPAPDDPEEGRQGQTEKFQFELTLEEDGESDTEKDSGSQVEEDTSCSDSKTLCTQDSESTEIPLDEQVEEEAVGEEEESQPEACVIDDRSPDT

Target: 3',5'-cyclic-AMP phosphodiesterase 4D (Homo sapiens, UniProt Q08499)
Assay: Inhibition of PDE4D2 by rapid fluorescence based assay

COc1ccc(C2=NN(CCCCCBr)C(=O)C3CC=CCC23)cc1OC (stereo unspecified)
pIC50: 8.64
